Laboratory results as given in publication PMC5220320 (Scientific Reports, 2017).

Target: T1, NDH-2 (type II NADH:quinone oxidoreductase) (Caldalkalibacillus thermarum, UniProt F5L3B8)
T1 construct: gene CathTA2_0279
T1 sequence (F5L3B8 1-399): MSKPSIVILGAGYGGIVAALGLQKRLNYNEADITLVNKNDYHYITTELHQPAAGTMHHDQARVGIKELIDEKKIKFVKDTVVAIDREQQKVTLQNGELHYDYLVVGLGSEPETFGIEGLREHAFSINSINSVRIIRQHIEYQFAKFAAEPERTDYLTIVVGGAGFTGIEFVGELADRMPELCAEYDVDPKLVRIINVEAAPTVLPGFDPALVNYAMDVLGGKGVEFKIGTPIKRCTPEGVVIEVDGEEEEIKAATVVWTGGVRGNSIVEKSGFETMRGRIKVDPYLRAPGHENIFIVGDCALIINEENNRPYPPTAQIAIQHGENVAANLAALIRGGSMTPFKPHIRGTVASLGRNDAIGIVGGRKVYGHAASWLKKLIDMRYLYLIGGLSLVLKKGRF

## Cc1cc2nc3c(=O)[nH]c(=O)nc-3n(C[C@H](O)[C@H](O)[C@H](O)COP(=O)(O)OP(=O)(O)OC[C@H]3O[C@@H](n4cnc5c(N)ncnc54)[C@H](O)[C@@H]3O)c2cc1C [FAD]
  crystal structure; flavin absorbance spectra: overview of the structure of C. thermarum NDH-2, showing the FAD and both substrates bound
